From US9725426B2, “Cystathionine-γ-lyase (CSE) inhibitors” (SOVA PHARMACEUTICALS, INC., priority 2012, dated 2017) come the findings set out here.

By UniProt entry, the sequences of proteins in these tests, tags left out.
UniProt P32929, whole entry, looked up: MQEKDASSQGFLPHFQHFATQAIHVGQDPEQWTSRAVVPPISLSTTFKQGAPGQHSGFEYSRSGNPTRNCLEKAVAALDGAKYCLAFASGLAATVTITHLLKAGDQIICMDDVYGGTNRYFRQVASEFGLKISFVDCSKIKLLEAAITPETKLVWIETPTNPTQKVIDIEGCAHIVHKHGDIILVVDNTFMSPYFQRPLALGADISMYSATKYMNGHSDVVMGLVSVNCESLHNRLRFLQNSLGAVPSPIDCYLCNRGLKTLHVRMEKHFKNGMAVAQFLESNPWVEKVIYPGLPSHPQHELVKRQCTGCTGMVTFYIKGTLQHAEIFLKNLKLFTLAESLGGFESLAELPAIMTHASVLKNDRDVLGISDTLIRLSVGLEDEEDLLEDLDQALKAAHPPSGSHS

In general, IC50 refers to the concentration needed to halve the response being measured.

The target in this assay is human, mouse or rat recombinant CSE (Homo sapiens, UniProt P32929). Briefly: CSE in vitro assay (H2S generation from DL-homocysteine, absorbance at 671 nm). Particulars: Table 1, 30 min preincubation, DL-homocysteine substrate, 3 h at 37 C.

For the compound `NN(CCCc1nnn[nH]1)c1nnn[nH]1`, the IC50 lay in the range of 10 to 100 µM.
